According to ChEMBL document CHEMBL1124148 (J Med Chem, 1988):

How the values were obtained:
[1] = molecular target: T1, Dihydrofolate reductase (Mus musculus, UniProt P00375)
T1 sequence (P00375 whole entry): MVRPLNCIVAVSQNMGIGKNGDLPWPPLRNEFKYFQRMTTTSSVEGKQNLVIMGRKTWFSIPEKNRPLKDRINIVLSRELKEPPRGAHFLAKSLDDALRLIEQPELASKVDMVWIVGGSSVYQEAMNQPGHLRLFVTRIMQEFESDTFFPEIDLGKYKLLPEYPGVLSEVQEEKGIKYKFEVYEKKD

[2] = system: L1210 ( R81); assay: Inhibitory concentration against growth of L1210/R81 cell line; type: functional, cell-based; conditions: Mus musculus
[3] = system: L1210; assay: Inhibitory concentration against growth of L1210 cell line; type: functional, cell-based; conditions: Mus musculus

Row | Structure (SMILES) | IC50 [1] | IC50 [2] | IC50 [3]
1 | Nc1nc(N)c2nc(CNc3ccc(C(=O)NC(CCCNC(=O)c4ccccc4C(=O)O)C(=O)O)cc3)cnc2n1 (centres undefined) | 52 nM |  | 
2 | Nc1nc(N)c2nc(CNc3ccc(C(=O)NC(CCCNC(=O)CCC(=O)O)C(=O)O)cc3)cnc2n1 (centres undefined) | 32 nM | 54000 nM | 37 nM
